The inhibition is the drop in the measured response relative to a control, in per cent.

The structures appear in SMILES notation. The list shows a part of the results, in another mix than the full data. Active and inactive are the calls of the source.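 The calls were made as follows: active = ranked among the strongest by inhibition in the single 10 µM screen, a fixed top-ranked set picked for dose follow-up; inactive = the rest, inconclusive results apart.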

The experiment relates to mevalonate kinase [Streptococcus pneumoniae D39]. Description: S. pneumoniae MK inhibitors, primary screen, biochemical, PK/LDH-coupled NADH absorbance (AID 555). The conditions noted are these: purified MK, PK/LDH-coupled NADH absorbance 340 nm; at 10 µM; active compounds read high.
For the compound `O=P(Nc1nccs1)(c1ccccc1)c1nc2ccccc2s1` (stereo unspecified), the inhibition was active: 92%.

The values are drawn from PubChem BioAssay AID555 (SRMLSC, 2006).
